The test system of assay [1] is E. coli ML-35p. Briefly: ONPG-mediated β-galactosidase membrane permeability assay. The assay is classed as cell-based, Escherichia coli. On the procedure: To measure the activity of neuropeptides in permeabilization of bacterial membrane, the ONPG-mediated β-galactosidase microplate assay was used. Permeabilization was measured using E. coli ML-35 with constitutive cytoplasmic β-galactosidase activity as previously described. Briefly, 18 h E. coli ML-35p in TSB was recultivated in TSB until mid-log phase (OD600 = 0.5). Flasks were put on ice for 20 min, and 2 ml of bacterial suspensions were transferred to Eppendorf tubes, washed twice with 10 mM sodium phosphate NaPB (pH 7.4) and suspended in NaPB to OD600 = 0.5. […] Microplates were incubated at 37°C for 1.5 h and optical densities were measured every 15 minutes at λ=405 nm (spectrophotometer Opsys MR Dynex Technologist). All the assays were performed in triplicate. Two positive controls were used: polymyxin B at the final concentration of 1 μg/ml as an established model of peptide permeabilizing action, and 20% chloroform (v/v). […] The molar concentration of NP that caused such increase was extrapolated from a linear portion of NP titration curve. Negative controls constituted bacteria incubated with NaPB and ONPG but without neuropeptides.

Assay [2] concerns H. influenzae ATCC 49247, NTHi3, NTHi6. To be noted: ATCC 49247, 3 h. As to the method:
(§1) For the radial diffusion assay a mid-log phase bacteria were diluted to the concentration of ~ 1–2 × 10^6 CFU/ml in 10 ml of melted and cooled to 42°C, 1% agarose (w/v, molecular biology grade) in 10 mM sodium phosphate containing 1/100 dilution of full strength BHI and 0.02% (v/v) Tween 20 (Sigma). After vigorous mixing, the bacteria in the agarose were poured onto Petri plate forming under-layer in which 3 mm diameter sterile wells were cut. The wells were filled with serially diluted neuropeptides (5 μl) at concentrations ranging from 10^−6 M to 10^−3 M and plates were incubated for 3 h at 37°C to allow peptide diffusion. The plates were then overlaid with 10 ml of the buffered 1% agarose containing 6% BHI (w/v) and allowed to harden. […] The MIC value was determined as the x-axis intercept obtained from the relationship between the diameter of radial diffusion zones versus NP concentration. […] Polymyxin B was used as a positive control.

Assay [3] concerns M. catarrhalis ATCC 25238, Mc5, Mc6. To be noted: ATCC 25238, 3 h. As to the method: as §1

The structures appear in SMILES notation.

In the case of `CC[C@H](C)[C@H](NC(=O)[C@H](Cc1ccc(O)cc1)NC(=O)[C@H](Cc1c[nH]cn1)NC(=O)[C@H](CCCNC(=N)N)NC(=O)[C@H](CC(C)C)NC(=O)[C@H](C)NC(=O)[C@H](CO)NC(=O)[C@H](Cc1ccc(O)cc1)NC(=O)[C@H](Cc1ccc(O)cc1)NC(=O)[C@H](CCCNC(=N)N)NC(=O)[C@H](C)N)C(=O)N[C@@H](CC(N)=O)C(=O)N[C@@H](CC(C)C)C(=O)N[C@H](C(=O)N[C@H](C(=O)N[C@@H](CCCNC(=N)N)C(=O)N[C@@H](CCC(N)=O)C(=O)N[C@@H](CCCNC(=N)N)C(=O)N[C@@H](Cc1ccc(O)cc1)C(N)=O)[C@@H](C)O)[C@@H](C)CC` [NPY18–36], the figures for the “time of maximal OD increase (ONPG influx)” value in assay [1] (10 μM neuropeptide) and in assay [1] (100 μM neuropeptide) were ~ 75 min and 75 min, respectively. In addition, in assay [1] (dose causing 50% increase in OD405 in reference to chloroform-inducible maximum at 45 min, 10^6 CFU/ml, NaPB pH 7.4, 3 mM ONPG, 37°C, triplicate), the “ID50 (inducible dose) for intracellular influx of ONPG” value was found to be 2.0 µM. The MIC in assay [2] is 25 to 40 µM; in assay [3] it was 8 to 12.5 µM.
